According to patent EP4831176A1, “BICYCLIC FUSED HETEROAROMATIC RING DERIVATIVE, AND PHARMACEUTICAL COMPOSITION AND USE THEREOF” (dated 2026):

Experiment: In vivo pharmacokinetic study in mice (LC/MS/MS of plasma)
Conditions: male ICR mice; for Drug elimination half-life T1/2 / Drug exposure AUC0-inf / Maximum drug concentration Cmax / Time to peak concentration Tmax: plasma, study IV 2 mg/kg and PO 10 mg/kg, route of this parameter not given; for Oral bioavailability F: IV 2 mg/kg, PO 10 mg/kg
Text: LC/MS/MS method was used to determine the drug concentrations in mouse plasma at different time points after intravenous injection and oral gavage administration of the compounds of the present application. The pharmacokinetic behavior of the compounds of the present application in mice was studied to evaluate their pharmacokinetic characteristics.
1. Experimental protocol: Test animals: Healthy adult male ICR mice, weighing 25-40 g, 6 mice. All mice had free access to food and water. Supplied by Beijing Vital River Laboratory Animal Technology Co., Ltd. Minimum of 3 days adaptation period, SPF area room, indoor temperature maintained at 20-26°C, indoor relative humidity maintained at 40-70%. Illuminated with fluorescent lamps, 12-hour light (08:00-20:00) and 12-hour dark, 2-5 mice per cage (same administration group). Unlimited access to feed (irradiated sterilized, Shaanxi Qinle Pharmaceutical Chemical Co., Ltd., China) and water (tap water purified by ultrapure water filtration system).
2. Animal experiment formulation: • 2.1. 10% DMSO / 40% PEG400 / 5% Tween 80 / 45% saline • 2.1.1 Vehicle formulation preparation: N/A • 2.1.2 Administration formulation preparation: Intravenous injection group: an appropriate amount of API powder was accurately weighed, added to 10% of the final volume of DMSO, and shaken and sonicated to ensure complete dissolution. After dissolution, 40% of the formulation volume of PEG400 and 5% of the formulation volume of Tween 80 were added, followed by vortexing or sonication. Finally, 45% of the formulation volume of saline was added to obtain a clear, transparent solution at a concentration of 0.5 mg/mL. • 2.2 10% HP-β-CD and 50 mM Citrate buffer in water (pH 4.0) • 2.2.1 Vehicle formulation preparation: • 50 mM Citrate buffer solution (pH 4.0): 1.92 g of anhydrous citric acid was weighed and added to 100 mL of purified water, stirred to dissolve, yielding a 100 mM citric acid solution. Separately, 2.94 g of sodium citrate was weighed and added to 100 mL of water, yielding a 100 mM sodium citrate solution. 33 mL of the 100 mM citric acid solution was taken, mixed with 17 mL of the 100 mM sodium citrate solution, mixed well, and diluted to 100 mL to obtain 50 mM citrate buffer at pH 4.0. • 10% HP-β-CD (Hydroxypropyl-β-cyclodextrin) and 50 mM Citrate buffer (pH 4.0) solution: 10 g of hydroxypropyl-β-cyclodextrin was accurately weighed and added to 100 mL of 50 mM Citrate buffer (pH 4.0) aqueous solution, and sonicated to ensure complete dissolution. • 2.2.2 Administration formulation preparation: Oral gavage group: an appropriate amount of API powder was accurately weighed, added to the final volume of 10% HP-β-CD and 50 mM Citrate in water (pH 4.0) solution, and shaken and sonicated to ensure complete dissolution. The mixture was then disrupted using a cell disruptor for 1 minute to obtain a clear, transparent or suspended solution at a concentration of 1 mg/mL. 3. Administration method: before administration, animals meeting the experimental requirements were selected, weighed, and marked. ICR mice were administered 2 mg/kg via tail vein injection and 10 mg/kg via oral gavage. 4. Sample Collection: before sampling, mice were restrained. Blood was collected from each dosed mouse via the submandibular vein at predetermined time points (IV administration: 0.083h, 0.25h, 0.5h, 1h, 2h, 4h, 7h, 24h, 30h, and 48h post-dose, totaling 10 time points; Oral gavage administration: 0.083h, 0.25h, 0.5h, 1h, 2h, 4h, 7h, 24h, 30h, and 48h post-dose, totaling 10 time points), approximately 80 µL of blood was collected each time. The blood was transferred to a 1.5 mL tube pre-filled with K2EDTA, and centrifuged (Eppendorf, Centrifuge 5804R) for 3 min (10000 rpm, 4°C) to separate plasma. The entire process was completed within 15 minutes after blood collection. All samples were stored in a -20°C freezer (Panasonic) until sample analysis. 5. […]

Structure (SMILES) | Drug elimination half-life T1/2 [h] | Drug exposure AUC0-inf [ng·h/mL] | Maximum drug concentration Cmax [ng/mL] | Time to peak concentration Tmax [h] | Oral bioavailability F [%]
Cn1nc(C2CCC(=O)NC2=O)c2ccc(N3CCC(CN4CCC(n5cnc(-c6cnc(NCc7c(F)ccc8c7CCO8)n7cnc(Cl)c67)n5)CC4)CC3)cc21 (stereo not shown) | 4.5 | 19631 | 1370 | 5.3 | 71.6
Cn1nc(C2CCC(=O)NC2=O)c2ccc(N3CCC(CN4CCC(c5ccc(-c6cnc(NCc7c(F)ccc8c7CCO8)n7cnc(Cl)c67)nc5)CC4)CC3)cc21 (stereo not shown) | 6.8 | 18218 | 1250 | 5.0 | 23.7
Cn1nc(C2CCC(=O)NC2=O)c2ccc(N3CCC(CN4CCC(n5cc(-c6cnc(NCc7c(F)ccc8c7CCO8)n7cc(C#N)nc67)cn5)CC4)CC3)cc21 (stereo not shown) | 5.7 | 8559 | 548 | 7.0 | 24.0
Cc1nc(C2CCN(CC3CCN(c4ccc5c(C6CCC(=O)NC6=O)nn(C)c5c4)CC3)CC2)ccc1-c1cnc(NCc2c(F)ccc3c2CCO3)n2cnnc12 (stereo not shown) | 6.6 | 203 | 20 | 2.7 | 1.3
Cn1nc(C2CCC(=O)NC2=O)c2ccc(N3CCC(CN4CCC(c5ccc(-c6cnc(NCc7c(F)ccc8c7CCO8)n7cnc(F)c67)cc5)CC4)CC3)cc21 (stereo not shown) | 13.4 | 13748 | 491 | 7.0 | 46.6
Cc1nc(C2CCN(CC3CN(c4ccc5c(C6CCC(=O)NC6=O)nn(C)c5c4)C3)CC2)ccc1-c1cnc(NCc2c(F)ccc3c2CCO3)n2cnc(Cl)c12 (stereo not shown) | 5.9 | 11637 | 721 | 6.0 | 40.9
O=C1CCC(Nc2ccc(N3CCN(C4CCN(Cc5ncc(-c6cnc(NCc7c(F)ccc8c7CCO8)n7cnc(Cl)c67)cn5)CC4(F)F)CC3)c(F)c2)C(=O)N1 (stereo not shown) | 4.2 | 17788 | 1553 | 1.3 | 73.6
Cn1nc(C2CCC(=O)NC2=O)c2ccc(N3CCC(CN4CCC(c5ccc(-c6cnc(NCc7c(F)ccc8c7CCO8)n7cnnc67)cc5)CC4)CC3)cc21 (stereo not shown) | 12.3 | 11332 | 445 | 7.0 | 34.2
O=C1CCC(N2Cc3cc(N4CCC(CN5CCC(n6cc(-c7cnc(NCc8c(F)ccc9c8CCO9)n8cnc(Cl)c78)cn6)CC5)CC4)ccc3C2=O)C(=O)N1 (stereo not shown) | 10.88 | 2992 | 90.5 | 4.0 | 11.49
Cn1nc(C2CCC(=O)NC2=O)c2ccc(N3CCC(CN4CCC(c5cnc(-c6cnc(NCc7c(F)ccc8c7CCO8)n7cnc(Cl)c67)cn5)CC4)CC3)cc21 (stereo not shown) | 5.1 | 12456 | 808 | 6.0 | 51.4
Cn1nc(C2CCC(=O)NC2=O)c2ccc(N3CCC(CN4CCC(n5cc(-c6cnc(NCc7c(F)ccc8c7CCO8)n7cnc(Cl)c67)cn5)CC4)CC3)nc21 (stereo not shown) | 4.0 | 13258 | 909 | 7.0 | 38.8
Cn1nc(C2CCC(=O)NC2=O)c2ccc(N3CCC(CN4CCC(n5cc(-c6cnc(NCc7c(F)ccc8c7CCO8)n7cnc(F)c67)cn5)CC4)CC3)cc21 (stereo not shown) | 4.8 | 10730 | 814 | 3.3 | 65.1
Cn1nc(C2CCC(=O)NC2=O)c2ccc(N3CCC(CN4CCC(n5cc(-c6cnc(NCc7c(F)ccc8c7CCO8)n7cnnc67)cn5)CC4)CC3)cc21 (stereo not shown) | 4.0 | 3236 | 269 | 4.3 | 18.4
Cn1nc(C2CCC(=O)NC2=O)c2ccc(N3CCC(CN4CCC(c5ccc(-c6cnc(NCc7c(F)ccc8c7CCO8)n7cnc(Cl)c67)cc5)CC4)CC3)cc21 (stereo not shown) | 10.2 | 34773 | 1364 | 7.0 | 61.1
Cn1nc(C2CCC(=O)NC2=O)c2ccc(N3CCC(CN4CCC(c5ccc(-c6cnc(NCc7c(F)ccc8c7CCO8)n7cnc(Cl)c67)nn5)CC4)CC3)cc21 (stereo not shown) | 4.2 | 13186 | 1031 | 4.0 | 33.8
Cn1nc(C2CCC(=O)NC2=O)c2ccc(N3CCC(CN4CCC(c5ncc(-c6cnc(NCc7c(F)ccc8c7CCO8)n7cnc(Cl)c67)cn5)CC4)CC3)cc21 (stereo not shown) | 6.0 | 16675 | 1310 | 4.0 | 61.4
Cn1nc(C2CCC(=O)NC2=O)c2ccc(N3CCC(CN4CCC(n5cc(-c6cnc(NCc7c(F)ccc8c7CCO8)n7cnc(Cl)c67)cn5)CC4)CC3)cc21 (stereo not shown) | 5.1 | 16610 | 1131 | 4.0 | 82.9
Cn1nc(C2CCC(=O)NC2=O)c2ccc(N3CC4(CC(CN5CCC(n6cc(-c7cnc(NCc8c(F)ccc9c8CCO9)n8cnc(Cl)c78)cn6)CC5)C4)C3)cc21 (stereo not shown) | 5.6 | 20215 | 1360 | 5.0 | 35.8
Cn1nc(C2CCC(=O)NC2=O)c2cc(F)c(N3CCC(CN4CCC(n5cc(-c6cnc(NCc7c(F)ccc8c7CCO8)n7cnc(Cl)c67)cn5)CC4)CC3)cc21 (stereo not shown) | 4.4 | 17646 | 1150 | 7.0 | 65.1
Cn1nc(C2CCC(=O)NC2=O)c2ccc(N3CCC(CN4CCC(n5cc(-c6cnc(NCc7c(F)ccc8c7CCO8)n7cnc(Cl)c67)c(F)n5)CC4)CC3)cc21 (stereo not shown) | 6.9 | 14508 | 819 | 6.0 | 41.0
